Drawing on ChEMBL document CHEMBL1125331, “6-Hydroxy-3-n-propyl-2,3,4,5-tetrahydro-1H-3-benzazepine and analogs: new centrally acting 5-HT1A receptor agonists” (J Med Chem, 1992), this text covers IC50 for 1 compound.

By UniProt entry, the sequences of proteins in these tests, tags left out.
UniProt P61169, whole entry: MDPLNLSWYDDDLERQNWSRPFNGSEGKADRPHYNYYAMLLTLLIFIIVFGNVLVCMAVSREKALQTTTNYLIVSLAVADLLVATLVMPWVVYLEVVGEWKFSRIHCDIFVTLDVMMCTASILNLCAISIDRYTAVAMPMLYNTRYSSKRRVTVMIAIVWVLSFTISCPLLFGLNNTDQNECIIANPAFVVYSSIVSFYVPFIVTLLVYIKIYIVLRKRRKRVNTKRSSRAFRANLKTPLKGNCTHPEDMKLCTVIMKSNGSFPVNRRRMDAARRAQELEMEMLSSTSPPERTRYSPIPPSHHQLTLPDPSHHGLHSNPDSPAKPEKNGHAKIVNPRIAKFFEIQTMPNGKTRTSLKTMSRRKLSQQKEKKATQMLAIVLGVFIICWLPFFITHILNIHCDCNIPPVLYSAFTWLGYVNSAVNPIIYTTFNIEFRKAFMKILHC
UniProt P19327, whole entry: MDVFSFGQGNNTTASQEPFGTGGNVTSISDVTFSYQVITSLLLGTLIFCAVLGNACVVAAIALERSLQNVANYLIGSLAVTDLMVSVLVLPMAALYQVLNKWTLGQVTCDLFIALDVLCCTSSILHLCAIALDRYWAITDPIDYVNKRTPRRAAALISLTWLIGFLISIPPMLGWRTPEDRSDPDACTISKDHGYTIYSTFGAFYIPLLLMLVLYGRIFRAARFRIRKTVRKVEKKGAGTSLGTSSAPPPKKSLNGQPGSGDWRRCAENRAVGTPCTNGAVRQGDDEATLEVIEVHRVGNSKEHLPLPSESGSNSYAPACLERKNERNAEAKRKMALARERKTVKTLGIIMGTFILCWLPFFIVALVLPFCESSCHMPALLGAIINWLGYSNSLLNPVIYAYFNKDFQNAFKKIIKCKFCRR

Broadly, the IC50 is the concentration that gives 50% inhibition. Low readings indicate higher potency, high ones lower potency.

Test [1] concerns the target D(2) dopamine receptor (Rattus norvegicus, UniProt P61169). Description: Inhibitory activity against Dopamine receptor D2 in rats using [3H]spiperone as radioligand. The procedure, abridged:
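Rat striatal membranes in 50 mM potassium phosphate buffer pH 7.4 were incubated with 0.5 nM [3H]spiperone for 10 min at 37 °C. Specific binding was defined with 10 μM 6,7-ADTN.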

Test [2] addresses 5-hydroxytryptamine receptor 1A (Rattus norvegicus, UniProt P19327). Description: Inhibitory activity against 5-hydroxytryptamine 1A receptor in rats, using [3H]8-OH-DPAT as radioligand. Put shortly: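 Rat whole-brain membranes (minus brainstem and cerebellum) in 50 mM Tris pH 8.0 with 120 mM NaCl, 4 mM CaCl2, 4 mM MgCl2 and 10 μM pargyline. Rapid filtration, then scintillation counting. Nonspecific binding defined with 10 μM 5-HT. IC50 by semi-log plot and linear regression.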

With `CN1CCc2cccc(O)c2CC1`, the IC50 in test [1] is 15 µM; in test [2], 1.5 µM.
